Measured values as given in ChEMBL document CHEMBL1201862, “PubChem BioAssay data set” (2004).
Blank lines part the entries; values can stand above or below the molecule they belong to. Calls of active or inactive are those of the source. Unless noted, the calls are words filed in the database; no cut-off is given here.

Chains of the proteins cited; added tags and fusions are not shown. Lines headed by an entry give the natural chain unless they say otherwise; changes in a name come on top.
UniProt P98170, whole entry: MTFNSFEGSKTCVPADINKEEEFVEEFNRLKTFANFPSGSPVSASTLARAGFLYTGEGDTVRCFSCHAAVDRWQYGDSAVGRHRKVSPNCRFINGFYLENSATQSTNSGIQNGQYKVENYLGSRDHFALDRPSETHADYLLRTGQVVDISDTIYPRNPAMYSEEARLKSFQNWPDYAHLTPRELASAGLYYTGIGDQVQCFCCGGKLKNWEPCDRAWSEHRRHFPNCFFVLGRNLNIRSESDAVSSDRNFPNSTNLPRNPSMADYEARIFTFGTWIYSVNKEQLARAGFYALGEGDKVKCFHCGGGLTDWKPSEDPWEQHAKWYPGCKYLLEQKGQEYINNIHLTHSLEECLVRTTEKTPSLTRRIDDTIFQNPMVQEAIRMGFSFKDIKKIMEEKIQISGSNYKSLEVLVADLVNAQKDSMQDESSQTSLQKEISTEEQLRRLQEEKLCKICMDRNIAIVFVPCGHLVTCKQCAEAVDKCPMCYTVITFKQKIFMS
UniProt P49840: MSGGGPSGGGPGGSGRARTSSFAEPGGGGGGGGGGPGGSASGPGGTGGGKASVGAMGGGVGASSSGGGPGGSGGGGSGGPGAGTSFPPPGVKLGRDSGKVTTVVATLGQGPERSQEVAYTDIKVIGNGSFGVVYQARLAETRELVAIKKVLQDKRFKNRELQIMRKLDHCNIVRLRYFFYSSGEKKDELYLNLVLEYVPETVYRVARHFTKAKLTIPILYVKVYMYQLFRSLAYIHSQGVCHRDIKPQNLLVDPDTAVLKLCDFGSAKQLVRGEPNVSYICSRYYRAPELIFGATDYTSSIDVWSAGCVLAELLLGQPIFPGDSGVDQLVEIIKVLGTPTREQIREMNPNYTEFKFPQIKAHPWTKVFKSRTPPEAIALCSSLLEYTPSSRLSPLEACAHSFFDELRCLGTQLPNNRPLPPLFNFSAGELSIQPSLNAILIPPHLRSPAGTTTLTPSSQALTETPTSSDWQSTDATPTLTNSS

Assays:
[1] = target: T1, E3 ubiquitin-protein ligase XIAP (Homo sapiens, UniProt P98170); assay: SAR analysis of Antagonists of XIAP-Bir3 domain of IAP-family anti-apoptotic proteins. [Related pubchem assays (depositor defined):AID1018, AID1449, AID1513, AID1514, AID1638]
[2] = target: T1, E3 ubiquitin-protein ligase XIAP; assay: SAR analysis of Antagonists of IAP-family anti-apoptotic proteins. [Related pubchem assays (depositor defined):AID1018, AID1449, AID1513, AID1514, AID1638]
[3] = target: Glycogen synthase kinase-3 alpha (Homo sapiens, UniProt P49840); type: functional;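 further: GSK3A result taken from a broad kinome-wide kinase panel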
[4] = target: T2, Mannose-6-phosphate isomerase (Homo sapiens, UniProt P34949); assay: human PMI inhibitors, high substrate, primary screen, biochemical, fluorescence intensity, high mannose 6-phosphate (AID 1220)
T2 sequence (P34949 whole entry): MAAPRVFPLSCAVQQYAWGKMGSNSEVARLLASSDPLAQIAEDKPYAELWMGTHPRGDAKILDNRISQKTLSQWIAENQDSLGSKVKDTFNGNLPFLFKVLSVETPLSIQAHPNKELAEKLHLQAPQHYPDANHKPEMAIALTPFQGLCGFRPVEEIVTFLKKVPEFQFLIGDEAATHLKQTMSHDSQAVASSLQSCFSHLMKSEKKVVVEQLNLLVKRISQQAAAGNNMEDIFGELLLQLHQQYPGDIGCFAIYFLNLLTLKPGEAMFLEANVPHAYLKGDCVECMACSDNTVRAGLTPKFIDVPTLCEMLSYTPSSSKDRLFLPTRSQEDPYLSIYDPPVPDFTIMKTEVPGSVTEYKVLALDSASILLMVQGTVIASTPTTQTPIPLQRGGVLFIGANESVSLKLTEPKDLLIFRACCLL

IC50 [1]: inactive: > 100 µM
IC50 [2]: inactive: > 100 µM
SMILES: CC(C)[C@H](NC(=O)[C@H](C)N)C(=O)N1CCC[C@@H]1C(=O)NC(c1ccccc1)c1ccccc1

SMILES: CN1CCC(c2c(O)cc(O)c3c(=O)cc(-c4ccccc4Cl)oc23)C(O)C1 (centres undefined)
Ki [3]: active: 0.794 µM

SMILES: O=c1c2ccccc2[se]n1-c1ccccc1 [EBSELEN]
IC50 [4]: < 0.391 µM (not active)
